Results as given in patent publication US11485745B2.

System: A2780 cells
Test: In-Vitro Cell Proliferation Assay
Type: cell-based
Conditions: read-out: Cell Proliferation (IC50), 72 hours, SRB

IC50: 0.0117 µM
SMILES: Cc1nn(C(C)C)c(C)c1C(=O)N1CCC2(CC1)CC2CNC(=O)c1cc2ccncc2o1 (stereo not shown)
